# Laboratory results published in publication PMC8718112, “Functional independence of endogenous μ- and δ-opioid receptors co-expressed in cholinergic interneurons” (eLife, 2021).
# By UniProt entry, the sequences of proteins in these tests, tags left out.
# UniProt P42866, whole entry: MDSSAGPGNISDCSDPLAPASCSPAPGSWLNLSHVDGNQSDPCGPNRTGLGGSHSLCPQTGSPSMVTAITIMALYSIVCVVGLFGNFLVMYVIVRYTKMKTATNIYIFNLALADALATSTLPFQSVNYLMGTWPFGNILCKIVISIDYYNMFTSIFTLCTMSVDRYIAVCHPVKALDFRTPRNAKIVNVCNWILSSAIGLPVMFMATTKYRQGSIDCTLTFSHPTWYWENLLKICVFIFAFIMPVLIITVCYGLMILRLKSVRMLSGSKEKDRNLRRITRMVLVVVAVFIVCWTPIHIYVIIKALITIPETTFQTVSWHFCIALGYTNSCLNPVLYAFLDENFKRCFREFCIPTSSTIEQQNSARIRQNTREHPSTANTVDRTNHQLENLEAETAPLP
# Molecular target: T1, µ-opioid receptor (MOR) (Mus musculus, UniProt P42866)
# T1 construct: gene Oprm1
compound,measurement,value
CN1CC[C@]23c4c5ccc(O)c4O[C@H]2[C@@H](O)C=C[C@H]3[C@H]1C5 [morphine],% inhibition of firing at 10 μM,79.4 ± 5.0
